From patent publication US4988691A (priority 1989, dated 1991)
Structures can show the parent of a compound that is named as a salt.

How the values were obtained:
β-adrenergic receptors = details: 3H-dihydroalprenolol 1nM; rat cerebral cortex membranes
[1] = system: alpha1 -adrenergic receptors; details: 3H-prazosin; table head 1nM (method: 0.5 nM); rat cerebral cortex membranes

| SMILES | Displacement activity at β-adrenergic receptors (β-adrenergic receptors) | Displacement activity at α1-adrenergic receptors [1] |
| --- | --- | --- |
| Cc1cc(C(=O)O[C@H]2C[C@H]3CC[C@@H](C2)N3C)on1 [Compound 5, 3-methylisoxazole-5-carboxylic acid 3-(endo-8-methyl-8-azabicyclo[3,2,1]octyl) ester hydrochloride] | inactive |  |
| Cc1cc(C(=O)O[C@H]2C[C@H]3CC[C@@H](C2)N3C)no1 [Compound 8, 5-methylisoxazole-3-carboxylic acid 3-(endo-8-methyl-8-azabicyclo[3,2,1]octyl) ester hydrochloride] | inactive |  |
| CN1[C@@H]2CC[C@H]1C[C@@H](OC(=O)c1c[nH]c3ccccc13)C2 [R, 3-endo-tropanyl indol-3-yl carboxylate, reference compound] | inactive | inactive |
| NC[C@H](O)c1ccc(O)c(O)c1 [norepinephrine, reference compound] |  | 900 |
